Drawing on ChEMBL document CHEMBL5252580, “Ionization and lipophilicity in nonpolar media mimicking the cell membrane interior” (Bioorg Med Chem, 2023), this text covers pKa for one molecule.

Data set [1] is described as follows: Ionization constant, pKa of the compound in water in presence of 20 to 27.4% acetonitrile cosolvent by potentiometric titration method. The following applies: water with 20 to 27.4% acetonitrile cosolvent. Type of data set: physicochemical.
The nature of data set [2]: Ionization constant, pKa of the compound in water in presence of 30 to 35% acetonitrile cosolvent by potentiometric titration method. Type of data set: physicochemical. The following applies: water with 30 to 35% acetonitrile cosolvent.

The structures appear in SMILES notation.

Take `NS(=O)(=O)c1cc2c(cc1Cl)NCNS2(=O)=O` [HYDROCHLOROTHIAZIDE]: the pKa in data set [1] worked out at 9.39; in data set [2], 9.82.
